By UniProt entry, the sequences of proteins in these tests, tags left out. Residues count along the entry.
UniProt O60674, 849-1124: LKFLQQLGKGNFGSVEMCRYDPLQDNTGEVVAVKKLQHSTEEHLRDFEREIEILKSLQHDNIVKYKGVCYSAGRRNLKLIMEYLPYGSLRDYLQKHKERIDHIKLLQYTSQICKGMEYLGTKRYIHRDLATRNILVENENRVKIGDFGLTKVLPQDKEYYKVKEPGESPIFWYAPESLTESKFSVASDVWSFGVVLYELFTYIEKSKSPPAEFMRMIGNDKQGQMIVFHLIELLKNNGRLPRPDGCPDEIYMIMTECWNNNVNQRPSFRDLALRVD

According to US8962608B2, “Cycloalkylnitrile pyrazole carboxamides as janus kinase inhibitors” (Merck Sharp & Dohme Corp., priority 2011, dated 2015):

Target: JAK2 (recombinant purified GST-tagged catalytic domain) (Homo sapiens (Human), UniProt O60674)
Experiment: biochemical
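Further: biochemical JAK kinase assay with HTRF detection.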

Row | IC50 | Compound
1 | 4 nM | C[C@@]1(O)CC[C@H](n2cc(C(N)=O)c(Nc3ccc([C@@](C)(O)C(F)(F)F)cc3)n2)[C@@H](C#N)C1 (single isomer, unassigned) [Example 32-11, 1-[(1S,2S,4R or 1R,2R,4S)-2-cyano-4-hydroxy-4-methylcyclohexyl]-3-({4-[(1R or 1S)-2,2,2-trifluoro-1-hydroxy-1-methylethyl]phenyl}amino)-1H-pyrazole-4-carboxamide]
2 | 19 nM | CC(C)N[C@@H]1CC[C@H](n2cc(C(N)=O)c(Nc3ccc(S(=O)(=O)C(F)(F)F)cc3)n2)[C@@H](C#N)C1 (single isomer, unassigned) [Example 28-175, 1-{(1S,2S,4R or 1R,2R,4S)-2-cyano-4-[(1-methylethyl)amino]cyclohexyl}-3-({4-[(trifluoro-methyl)sulfonyl]phenyl}amino)-1H-pyrazole-4-carboxamide]
3 | 18 nM | N#C[C@H]1CCCC[C@@H]1n1cc(C(N)=O)c(Nc2ccc(F)nc2)n1 (single isomer, unassigned) [Example 17-19, 1-[(1S,2S or 1R,2R)-2-cyanocyclohexyl]-3-[(6-fluoropyridin-3-yl)amino]-1H-pyrazole-4-carboxamide]
4 | 2 nM | CC(C)(c1ccc(Nc2nn([C@H]3CC[C@](C)(O)C[C@@H]3C#N)cc2C(N)=O)cc1)C(O)C(F)(F)F (single isomer, unassigned) [Example 32-4, 1-[(1S,2S,4S or 1R,2R,4R)-2-cyano-4-hydroxy-4-methylcyclohexyl]-3-{[4-(3,3,3-trifluoro-(2R or 2S)-hydroxy-1,1-dimethylpropyl)phenyl]amino}-1H-pyrazole-4-carboxamide]
5 | 16 nM | N#C[C@H]1C[C@@H](N2CCC2)CC[C@@H]1n1cc(C(N)=O)c(Nc2ccc(CC(F)(F)F)cc2)n1 (single isomer, unassigned) [Example 28-69, 1-[(1S,2S,4S or 1R,2R,4R)-4-azetidin-1-yl-2-cyanocyclohexyl]-3-{[4-(2,2,2-trifluoroethyl)phenyl]amino}-1H-pyrazole-4-carboxamide]
6 | 51 nM | N#C[C@H]1C[C@H](NCC(F)(F)F)CC[C@@H]1n1cc(C(N)=O)c(Nc2ccc(Cl)cc2)n1 (single isomer, unassigned) [Example 28-225, 3-[(4-chlorophenyl)amino]-1-{(1S,2S,4R or 1R,2R,4S)-2-cyano-4-[(2,2,2-trifluoroethyl)amino]cyclohexyl}-1H-pyrazole-4-carboxamide]
7 | 265 nM | CC(C)(O)C1CC(CN[C@H]2CC[C@@H](n3cc(C(N)=O)c(Nc4ccc(C(F)(F)F)cc4)n3)[C@H](C#N)C2)C1 (single isomer, unassigned) [Example 30-4, 1-[(1R,2R,4S or 1S,2S,4R)-2-cyano-4-({[3-(1-hydroxy-1-methylethyl)cyclo-butyl]methyl}amino)cyclo-hexyl]-3-{[4-(trifluoro-methyl)phenyl]amino}-1H-pyrazole-4-carboxamide]
8 | 25 nM | C=C[C@]1(O)CC[C@H](n2cc(C(N)=O)c(Nc3ccc(Cl)cc3)n2)[C@@H](C#N)C1 (single isomer, unassigned) [Example 32-5, 3-[(4-chlorophenyl)amino]-1-[(1S,2S,4S or 1R,2R,4R)-2-cyano-4-ethenyl-4-hydroxycyclohexyl]-1H-pyrazole-4-carboxamide]
9 | 63 nM | COCC(C)(C)N(C)[C@H]1CCC(n2cc(C(N)=O)c(Nc3ccc(Cl)cc3)n2)[C@@H](C#N)C1 (single isomer, unassigned) [Example 28-234, 3-[(4-chlorophenyl)amino]-1-{(1S,2S,4S or 1R,2R,4R)-2-cyano-4-[(2-methoxy-1,1-dimethylethyl)(methyl)ami-no]cyclohexyl}-1H-pyrazole-4-carboxamide]
10 | 6 nM | C=C[C@@]1(O)CC[C@H](n2cc(C(N)=O)c(Nc3ccc(Cl)cc3)n2)[C@@H](C#N)C1 (single isomer, unassigned) [Example 32-16, 3-[(4-chlorophenyl)amino]-1-[(1S,2S,4R or 1R,2R,4S)-2-cyano-4-ethenyl-4-hydroxycyclohexyl]-1H-pyrazole-4-carboxamide]
11 | 910 nM | CC(C)CN(CC1CC1)[C@H]1CC[C@@H](n2cc(C(N)=O)c(Nc3ccc(C(F)(F)F)cc3)n2)[C@H](C#N)C1 (single isomer, unassigned) [Example 30-9, l-{(1R,2R,4S or 1S,2S,4R)-2-cyano-4-[(cyclopropylmethyl)(2-methylpropyl)amino]cyclo-hexyl}-3-{[4-(trifluoromethyl)phenyl]amino}-1H-pyrazole-4-carboxamide]
12 | 32 nM | CN(C)[C@@H]1CC[C@H](n2cc(C(N)=O)c(Nc3ccc(OC(F)F)cc3)n2)[C@@H](C#N)C1 (single isomer, unassigned) [Example 28-95, 1-[(1S,2S,4R or 1R,2R,4S)-2-cyano-4-(dimethylamino)cyclohexyl]-3-{[4-(difluoromethoxy)phenyl]amino}-1H-pyrazole-4-carboxamide]
13 | 19 nM | N#C[C@H]1CCCC[C@@H]1n1cc(C(N)=O)c(Nc2ccc(C(F)(F)F)cc2)n1 (single isomer, unassigned) [Example 17-105, 1-[(1S,2S or 1R,2R)-2-cyanocyclohexyl]-3-{[4-(trifluoromethyl)phenyl]amino}-1H-pyrazole-4-carboxamide]
14 | 5 nM | CC(C)(c1ccc(Nc2nn([C@H]3CC[C@@](C)(O)C[C@@H]3C#N)cc2C(N)=O)cc1)C(O)C(F)(F)F (single isomer, unassigned) [Example 32-6, 1-[(1S,2S,4R or 1R,2R,4R)-2-cyano-4-hydroxy-4-methylcyclohexyl]-3-{[4-(3,3,3-trifluoro-(2R or 2S)-hydroxy-1,1-dimethylpropyl)phenyl]amino}-1H-pyrazole-4-carboxamide]
15 | 23 nM | N#C[C@H]1C[C@@H](N2CC(O)(C(F)(F)F)C2)CC[C@@H]1n1cc(C(N)=O)c(Nc2ccc(C(F)(F)F)cc2)n1 (single isomer, unassigned) [Example 28-200, 1-{(1S,2S,4S or 1R,2R,4R)-2-cyano-4-[3-hydroxy-3-(trifluoromethyl)azetidin-1-yl]cyclohexyl}-3-{[4-(trifluoromethyl)phenyl]amino}-nvrazole-4-carboxamide]
16 | 32 nM | COC1CN([C@H]2CC[C@H](n3cc(C(N)=O)c(Nc4ccc(C(F)(F)F)cc4)n3)[C@@H](C#N)C2)C1 (single isomer, unassigned) [Example 28-99, 1-[(1S,2S,4S or 1R,2R,4R)-2-cyano-4-(3-methoxyazetidin-1-yl)cyclohexyl]-3-{[4-(trifluoromethyl)phenyl]amino}-1H-pyrazole-4-carboxamide]
17 | 6 nM | CC(C)(CF)c1ccc(Nc2nn([C@H]3CC[C@@H](O)C[C@@H]3C#N)cc2C(N)=O)cc1 (single isomer, unassigned) [Example 25-9, 1-[(1S,2S,4R or 1R,2R,4S)-2-cyano-4-hydroxycyclohexyl]-3-{[4-(2-fluoro-1,1-dimethylethyl)phenyl]amino}-1H-pyrazole-4-carboxamide]
18 | 94 nM | CC(C)NC(=O)O[C@H]1CCC(n2cc(C(N)=O)c(Nc3ccc(F)cc3)n2)[C@@H](C#N)C1 (mixture of isomers) [Example 34-8, (1S,3S,4S and 1R,3R,4R)-4-{4-carbamoyl-3-[(4-fluorophenyl)amino]-1H-pyrazol-1-yl}-3-cyanocyclohexyl propan-2-ylcarbamate]
19 | 18 nM | N#C[C@@H]1CCCCC1n1cc(C(N)=O)c(Nc2ccc(S(=O)(=O)CC(F)(F)F)cc2)n1 (single isomer, unassigned) [Example 43-7, 1-[(1S,2S or 1R,2R)-2-cyanocyclohexyl]-3-({4-[(2,2,2-trifluoroethyl)sulfonyl]phenyl}amino)-1H-pyrazole-4-carboxamide]
20 | 26 nM | N#C[C@H]1C[C@H](O)CC[C@@H]1n1cc(C(N)=O)c(Nc2ccc(Cl)c(F)c2)n1 (single isomer, unassigned) [Example 25-3, 3-[(4-chloro-3-fluorophenyl)amino]-1-[(1S,2S,4R or 1R,2R,4S)-2-cyano-4-hydroxycyclohexyl]-1H-pyrazole-4-carboxamide]
21 | 240 nM | N#C[C@H]1C[C@H](N2CC3(CCC3)C2)CC[C@@H]1n1cc(C(N)=O)c(Nc2ccc(C(F)(F)F)cc2)n1 (single isomer, unassigned) [Example 28-24, 1-[(1S,2S,4R or 1R,2R,4S)-4-(2-azaspiro[3.3]hept-2-yl)-2-cyanocyclohexyl]-3-{[4-(trifluoromethyl)phenyl]amino}-1H-pyrazole-4-carboxamide]
22 | 575 nM | C[C@@H]1C[C@@H](C)N1[C@@H]1CC[C@H](n2cc(C(N)=O)c(Nc3ccc(C(F)(F)F)cc3)n2)[C@@H](C#N)C1 (single isomer, unassigned) [Example 28-30, 1-{(1S,2S,4R or 1R,2R,4S)-2-cyano-4-[(2R,4R or 2S,4S)-2,4-dimethylazetidin-1-yl]cyclohexyl}-3-{[4-(trifluoromethyl)phenyl]amino}-1H-pyrazole-4-carboxamide]
23 | 5 nM | N#C[C@H]1CCCCC1n1cc(C(N)=O)c(Nc2ccc(S(=O)(=O)CC(F)(F)F)cc2)n1 (mixture of isomers) [Example 17-12, 1-[(1S,2S and 1R,2R)-2-cyanocyclohexyl]-3-({4-[(2,2,2-trifluoroethyl)sulfonyl]phenyl}amino)-1H-pyrazole-4-carboxamide]
24 | 30 nM | N#C[C@H]1C[C@@H](N2CC(F)C2)CC[C@@H]1n1cc(C(N)=O)c(Nc2ccc(C(F)(F)F)cc2)n1 (single isomer, unassigned) [Example 28-105, 1-[(1S,2S,4S or 1R,2R,4R)-2-cyano-4-(3-fluoroazetidin-1-yl)cyclohexyl]-3-{[4-(trifluoromethyl)phenyl]amino}-1H-pyrazole-4-carboxamide]
25 | 2 nM | N#C[C@H]1C[C@H](N2CC(O)C2)CC[C@@H]1n1cc(C(N)=O)c(Nc2ccc(S(=O)(=O)C(F)(F)F)cc2)n1 (single isomer, unassigned) [Example 28-150, 1-[(1S,2S,4R or 1R,2R,4S)-2-cyano-4-(3-hydroxyazetidin-1-yl)cyclohexyl]-3-({4-[(trifluoro-methyl)sulfonyl]phenyl}amino)-1H-pyrazole-4-carboxamide]
